In this assay the target is T1, AChE from Electrophorus electricus (Electrophorus electricus, UniProt O42275).
T1 construct: purchased Sigma-Aldrich (St. Louis, MO, USA)
The format is biochemical. The settings on record: Ellman's reagent, microplate, 37 °C, pH 7.5; read-out: half maximal inhibitory concentration (IC50) against AChE. How it is done:
Microplate assays utilizing Ellman’s reagent were performed to quantitatively assess the inhibitory activity of the isolated compounds against AChE [67].
Ammonium thiocyanate, sodium thiosulfate pentahydrate, anhydrous sodium sulfate and iodine were purchased from Cicarelli Laboratorios (San Lorenzo, Santa Fe). AChE from Electrophorus electricus EC 3.1.1.7, Fast blue salt B (FBB), α-naphthol, α-naphthyl acetate (α-NAc), and CDCl3, were purchased from Sigma-Aldrich (St. Louis, MO, USA). Acetonitrile (LCMS grade) was acquired from Carlo Erba Reagents (Val de Reuil, France) and formic acid from Merck. Aluminium TLC sheets coated with Silica gel 60 F were purchased from Merck (Darmstadt, Germany). Agar was purchased from Britania (Bs. As., Argentina).
Inhibition percentage determinations were carried out using the method applied by Osella et al.. […] The plate was shaken for 2 s and the increase in absorbance at 405 nm was monitored at 37 °C for 15 min. […] IC50 calculated using Prism V5.01 (GraphPad Software Inc., La Jolla, CA, USA) applying a non linear regression curve fit for a log[inhibitor] vs. normalized answer model with variable slope.
Background: DTNB colorimetry detects thiols as they appear.

Amino acid sequences for entries named in this document (tags omitted). Residues count along the entry.
UniProt O42275, 24-633: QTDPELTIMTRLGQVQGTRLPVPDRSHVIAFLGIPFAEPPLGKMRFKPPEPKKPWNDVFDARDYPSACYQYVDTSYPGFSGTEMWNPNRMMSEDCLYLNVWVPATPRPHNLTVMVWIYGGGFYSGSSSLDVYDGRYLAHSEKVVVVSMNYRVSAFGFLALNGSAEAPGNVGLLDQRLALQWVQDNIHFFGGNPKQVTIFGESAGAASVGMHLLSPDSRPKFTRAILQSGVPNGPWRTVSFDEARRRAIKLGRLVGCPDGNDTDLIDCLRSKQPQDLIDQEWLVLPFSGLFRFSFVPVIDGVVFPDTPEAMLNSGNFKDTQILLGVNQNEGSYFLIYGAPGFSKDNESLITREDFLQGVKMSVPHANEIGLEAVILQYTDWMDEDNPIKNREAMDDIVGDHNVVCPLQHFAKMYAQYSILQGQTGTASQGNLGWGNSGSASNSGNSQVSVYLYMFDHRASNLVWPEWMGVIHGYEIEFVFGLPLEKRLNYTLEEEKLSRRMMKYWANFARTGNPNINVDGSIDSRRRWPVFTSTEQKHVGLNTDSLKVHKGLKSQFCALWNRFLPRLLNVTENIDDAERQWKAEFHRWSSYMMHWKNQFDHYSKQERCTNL

Take `CNC(=O)Oc1ccc2c(c1)[C@]1(C)CCN(C)[C@@H]1N2C` [eserine, reference compound]: the IC50 is 224 ± 17 nM.

The record behind these values is article PMC11143095, “Chemically engineered essential oils prepared through thiocyanation under solvent-free conditions: chemical and bioactivity alteration” (Natural Products and Bioprospecting, 2024).
